PubChem BioAssay AID568 (Sanford-Burnham Center for Chemical Genomics, 2006)
Only a part is listed here, and it is no random draw. Potency and affinity values are given separately. Active and inactive are the calls of the source. No rule for the calls is given here.

Sequences of proteins named here, by UniProt entry; tags and fusion partners are left off.
UniProt P11142, whole entry: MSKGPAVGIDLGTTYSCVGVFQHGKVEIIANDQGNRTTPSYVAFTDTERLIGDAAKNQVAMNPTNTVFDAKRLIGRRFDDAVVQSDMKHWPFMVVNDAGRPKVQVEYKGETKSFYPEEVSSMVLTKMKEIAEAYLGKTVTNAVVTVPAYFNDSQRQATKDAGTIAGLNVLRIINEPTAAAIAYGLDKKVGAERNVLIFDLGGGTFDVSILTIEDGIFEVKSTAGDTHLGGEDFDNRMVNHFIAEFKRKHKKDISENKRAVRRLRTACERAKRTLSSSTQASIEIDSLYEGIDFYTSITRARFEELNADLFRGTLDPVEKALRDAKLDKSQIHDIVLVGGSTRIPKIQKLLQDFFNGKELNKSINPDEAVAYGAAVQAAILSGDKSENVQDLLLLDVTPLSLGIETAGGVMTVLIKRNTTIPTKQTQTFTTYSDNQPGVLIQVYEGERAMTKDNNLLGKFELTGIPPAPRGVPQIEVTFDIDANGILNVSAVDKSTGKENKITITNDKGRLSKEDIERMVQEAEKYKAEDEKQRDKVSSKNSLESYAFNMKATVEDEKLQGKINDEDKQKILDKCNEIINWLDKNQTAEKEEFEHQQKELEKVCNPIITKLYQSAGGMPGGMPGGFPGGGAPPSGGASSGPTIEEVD

Target: Heat shock cognate 71 kDa protein (Homo sapiens) (UniProt P11142)
Assay: Hsc70 inhibitors, probe displacement, primary screen, biochemical, fluorescence polarization (AID 568)
Settings: mP, at 20 µM, stronger effect = higher value

Structure (SMILES)	displacement
CP(=O)(NC(=O)Nc1ccccc1)Oc1ccccc1 (stereo unspecified)	inactive: -3.5%
CCOP(C)(=S)SCC(=O)NC(C)C(=O)O (stereo unspecified)	inactive: 0.3%
CP(=O)(Nc1ccccn1)Oc1ccc(Cl)cc1 (stereo unspecified)	inactive: 1.7%
CP(=S)(Nn1cnnc1)Oc1ccccc1 (stereo unspecified)	inactive: -4.7%
COc1ccccc1OP(C)(=O)Nc1ccc(C)cc1 (stereo unspecified)	inactive: 1%
Cc1ccc(NP(C)(=O)Oc2ccccc2)c(C)c1 (stereo unspecified)	inactive: -0.7%
COc1ccc(OP(C)(=O)Nc2cccc(F)c2)cc1 (stereo unspecified)	inactive: 2.6%
Cc1ccc(C)c(NP(C)(=O)Oc2ccccc2)c1 (stereo unspecified)	inactive: 7.2%
Cc1cc(C)cc(OP(C)(=O)Nc2ccccn2)c1 (stereo unspecified)	inactive: -0.5%
COc1ccccc1OP(C)(=O)Nc1c(C)cccc1C (stereo unspecified)	inactive: -1.2%
Cc1nc2ccc3ccccc3c2s1.O=[N+]([O-])c1cc([N+](=O)[O-])c(O)c([N+](=O)[O-])c1	inactive: -4.2%
CCOP(C)(=S)SCC(=O)NC(C)(CC)C(=O)O (stereo unspecified)	inactive: 1.8%
CP(=O)(Nc1ccc2c(c1)OCCO2)Oc1ccccc1 (stereo unspecified)	inactive: 4%
Cc1ccccc1NP(C)(=O)Nc1ccccc1C	inactive: 6.8%
CN(C)CCOC(=O)C(O)(c1ccccc1)C1CCCCC1 (stereo unspecified)	inactive: 3.6%
CCN(CC)CCCOC(=O)C(O)(c1ccccc1)C1CCCCC1 (stereo unspecified)	inactive: 0.1%

Structure (SMILES)	displacement
CP(=O)(Nc1ccccc1)Oc1ccc(F)cc1 (stereo unspecified)	inactive: 6.4%
CP(=O)(Nc1ccccc1F)Oc1ccccc1 (stereo unspecified)	inactive: -0.6%
CN(C)CCOC(=O)C(O)(c1ccccc1)C1CCCC1 (stereo unspecified)	inactive: -1.8%
Cc1c(NP(C)(=O)Oc2ccc(C(C)C)cc2)c(=O)n(-c2ccccc2)n1C (stereo unspecified)	inactive: 0.7%
CP(=O)(Nc1ccccn1)Oc1ccccc1 (stereo unspecified)	inactive: 4.2%
COc1ccccc1OP(C)(=O)Nc1ccc(C)cc1C (stereo unspecified)	inactive: -2.2%
CCc1ccc(OP(C)(=O)O)cc1	inactive: 0.7%
COc1ccccc1OP(C)(=O)Nc1ccc(C)c(C)c1 (stereo unspecified)	inactive: -1.6%
Cc1nc2ccc3ccccc3c2o1.O=[N+]([O-])c1cc([N+](=O)[O-])c(O)c([N+](=O)[O-])c1	inactive: 7.8%
CP(=O)(OC12CC3CC(CC(C3)C1)C2)OC12CC3CC(CC(C3)C1)C2	inactive: 5.5%
CCN(CC)CC(O)COC(=O)C(O)(c1ccccc1)C1CCCCC1 (stereo unspecified)	inactive: 3.6%
COc1ccccc1OP(C)(=O)Nc1c(C)n(C)n(-c2ccccc2)c1=O (stereo unspecified)	inactive: 3.9%
CP(=O)(Oc1ccccc1)N1CCOC1=O (stereo unspecified)	inactive: 2.5%
CC(C)(C)c1ccc(OP(C)(=O)O)cc1	inactive: 3.2%
CP(=O)(Nc1ccc(Cl)cc1)Oc1ccc(F)cc1 (stereo unspecified)	inactive: 3.5%
